{"sequences": {"note": "By UniProt entry, the sequences of proteins in these tests, tags left out.", "UniProt P62942, whole entry": "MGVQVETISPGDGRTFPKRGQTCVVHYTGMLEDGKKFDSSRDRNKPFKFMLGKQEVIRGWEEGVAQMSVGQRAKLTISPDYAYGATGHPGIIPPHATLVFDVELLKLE"}, "source": "paper PMC7667655", "about": "“Targeted Covalent Inhibition of Plasmodium FK506 Binding Protein 35” (ACS Medicinal Chemistry Letters, 2020)", "target": "T1, FKBP12 (Homo sapiens, UniProt P62942)", "T1 construct": "6His-SUMO (N, cleaved yes); made in house; host or cells: E. coli (identical protocol to FBD35, BL21 DE3)", "assay": "Fluorescence polarization competition, FKBP12", "assay_type": "binding", "note": "pIC50: −log10 of the molar value.", "data": [{"smiles": "CCC(C)(C)C(=O)C(=O)N1CCCC[C@H]1C(=O)O[C@H](CCc1ccc(OC)c(OC)c1)c1cccc(N)c1", "note": "[SLF, reference compound]", "values": [{"measurement": "pIC50", "value": 7.15}]}]}
